Results reported in patent US10023543B2 (CELGENE QUANTICEL RESEARCH, INC., priority 2014, dated 2018).

Legend:
Kasumi-1 = Kasumi-1 AML cell line proliferation assay (Cell-MTS assay); type: cell-based; settings: Homo sapiens, 168 hours
Source text: Colorimetric cellular assay to assess the ability of LSD-1 small molecule inhibitors to effect the proliferation of the established AML cancer cell line Kasumi-1.
This Cell-MTS assay is a 7-day plate based colorimetric assay which quantifies the amount of newly generated NADH in the presence and absence of test compound. These NADH levels are used as a proxy for the quantification of cancer cell proliferation.
The established cancer cell line Kasumi-1 with a verified p53 mutation were purchased from American Type Culture Collection (ATCC) and routinely passaged according to ATCC published protocols. For routine assay these cells were seeded at a density of 20,000 cells per 96-well. 24 hours after plating, cells received an 11 point dilution of test compound with final concentration ranges from 100 μM to 2.0 nM. Cells are incubated in the presence of compound for 168 hours at 37° C., 5% CO2. At the end of this compound incubation period, 80 μl of media is removed and 20 μL of CellTiter 96® AQueous Non-Radioactive Cell Proliferation Assay solution (Promega) is added. The cells are incubated until the OD490 is >0.6. IC50 values are calculated using the IDBS XLfit software package and include background subtracted OD490 values and normalization to DMSO controls.

THP-1 (AML) cells = assay: LSD1 CD11b cellular assay (flow cytometry); type: cell-based; settings: Homo sapiens, THP-1, 96 h, read-out: THP-1 IC50 (μM)

SMILES: COc1ccc(-c2c(-c3ccc(C#N)c(F)c3)nc(N3CCC(N)CC3)n(C)c2=O)cc1F [Example 7, 4-[2-(4-amino-piperidin-1-yl)-5-(3-fluoro-4-methoxy-phenyl)-1-methyl-6-oxo-1,6-dihydro-pyrimidin-4-yl]-2-fluoro-benzonitrile]
- IC50 (Kasumi-1): < 0.1 µM

SMILES: COc1ccc(-c2c(-c3ccc(C#N)c(F)c3)nc(N(C)C3CCNCC3)n(C)c2=O)cc1 [Example 55, 2-fluoro-4-[5-(4-methoxy-phenyl)-1-methyl-2-(methyl-piperidin-4-yl-amino)-6-oxo-1,6-dihydro-pyrimidin-4-yl]-benzonitrile]
- IC50 (THP-1 (AML) cells): 0.1 to 1 µM
